IC50 data for one compound are collected here from patent US6617340B1, “N-(substituted glycyl)-pyrrolidines, pharmaceutical compositions containing them and their use in inhibiting dipeptidyl peptidase-IV” (Novartis AG, priority 1999, dated 2003).

By UniProt entry, the sequences of proteins in these tests, tags left out. Residues count along the entry.
UniProt P14740, 37-767 limits assumed: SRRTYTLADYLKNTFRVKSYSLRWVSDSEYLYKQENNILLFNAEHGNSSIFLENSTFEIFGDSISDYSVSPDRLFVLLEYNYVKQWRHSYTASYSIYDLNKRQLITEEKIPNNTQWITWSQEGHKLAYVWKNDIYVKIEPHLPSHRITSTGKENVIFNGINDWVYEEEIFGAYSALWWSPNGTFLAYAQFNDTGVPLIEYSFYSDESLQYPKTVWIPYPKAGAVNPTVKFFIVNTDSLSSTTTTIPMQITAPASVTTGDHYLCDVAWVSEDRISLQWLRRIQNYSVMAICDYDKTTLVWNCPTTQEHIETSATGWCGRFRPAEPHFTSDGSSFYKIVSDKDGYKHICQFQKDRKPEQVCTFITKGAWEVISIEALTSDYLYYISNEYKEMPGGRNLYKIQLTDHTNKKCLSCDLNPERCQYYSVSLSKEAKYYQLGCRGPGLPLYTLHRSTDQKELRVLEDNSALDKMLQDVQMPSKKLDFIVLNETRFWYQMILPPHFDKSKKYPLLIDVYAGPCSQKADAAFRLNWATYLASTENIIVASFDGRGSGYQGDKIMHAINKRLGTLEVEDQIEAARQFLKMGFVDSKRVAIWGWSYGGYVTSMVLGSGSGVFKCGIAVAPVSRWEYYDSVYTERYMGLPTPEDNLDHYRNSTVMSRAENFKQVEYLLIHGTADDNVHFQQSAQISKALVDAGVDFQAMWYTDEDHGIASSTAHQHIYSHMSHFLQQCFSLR

The assay concerns the target T1, DPP-IV activity in rat plasma (Rattus norvegicus, UniProt P14740).
T1 construct: from tissue; host or cells: rat plasma
The assay is described as follows: rat plasma DPP-IV assay. It is filed as biochemical. The note with it: substrate H-Glycine-Proline-AMC.

Counter-ions that a name gives are not always drawn.

Turning to `O=C(CNCCNc1ccc([N+](=O)[O-])cn1)N1CCCC1` [Ex. 3, 1-[2-[(5-nitropyridin-2-yl)amino]ethylamino]acetylpyrrolidine dihydrochloride], half-maximal inhibition (IC50) was put at 5.2 µM.
